Values of other authors as cited in publication PMC9841521, “Subnanomolar Affinity and Selective Antagonism at α7 Nicotinic Receptor by Combined Modifications of 2-Triethylammonium Ethyl Ether of 4-Stilbenol (MG624)” (Journal of Medicinal Chemistry, 2022).

System: α7-nAChRs
Set-up: method as in PMID 34756924
Conditions: cited from earlier work

CC[N+](CC)(CC)CCOc1ccc(/C=C/c2ccccc2)cc1.[I-] [Compound 1a, triethylammonium ethyl ether of 4-stilbenol]
α7-nAChR partial agonist response (100 μM application): ≈ 40 % of the 200 μM ACh control stimulation | behaviour at the α7-nAChRs (in words): very weak partial agonist
